Values of other authors, collected in article PMC7471432 (Acta Pharmacologica Sinica, 2020).

Tests used:
locomotor activity = details: as high as 60 mg/kg; cited from earlier work
[1] = cited from earlier work

Geissoschizine methyl ether [GM]
decrease in locomotor activity (locomotor activity): no significant decrease | blood–brain barrier permeability rate relative to rhynchophylline [1]: nearly five fold higher
